Measured values reported in paper PMC3144219, “Identification of Inhibitors against Mycobacterium tuberculosis Thiamin Phosphate Synthase, an Important Target for the Development of Anti-TB Drugs” (PLoS ONE, 2011).

System: M.smegmatis mc^2155
Assay: MIC99 determination, broth macrodilution with CFU plating
Assay type: cell-based
Settings: 24 hours, 99% inhibition of growth

For “2-{5-[2,4,6-trinitrophenyl)amino]-1H-tetrazol-1-yl}ethanol”, the “MIC99 for M.smegmatis” value was 500 µg/mL.
